This is a selection; strong and weak results do not stand in their true shares. Some tests of the compounds listed are not included; inactive here does not mean inactive elsewhere. Active and inactive are the calls of the source. Calls follow the shape of the dose curve; as a rule, active = well fitted activation curve with a large enough effect; inconclusive = small, poorly fitted or top-dose-only effect, or another doubt; inactive = no such curve, though single readings can be large or run the other way.
Target: Rap guanine nucleotide exchange factor 4 (Homo sapiens) (UniProt Q8WZA2)
Experiment: Validation qHTS for agonist of cAMP-regulated guanine nucleotide exchange factor 4 (EPAC2);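 also: exchange makes BODIPY-GDP fluorescence drop when released from Rap1B; series mostly up to about 150 µM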
Conditions: EPAC2 Rap1B BODIPY-GDP exchange, fluorescence; hits give high values
From the text: Principle Investigator: Xiaodong Cheng Ph.D.
The University of Texas Medical Branch, […], TX
In multi-cellular eukaryotic organisms, the effects of cAMP are transduced by two ubiquitously-expressed intracellular cAMP receptors, the classic protein kinase A/cAMP-dependent protein kinase (PKA/cAPK) and the more recently discovered exchange protein directly activated by cAMP/cAMP-regulated guanine nucleotide exchange factor (EPAC/cAMP-GEF). Both PKA and EPAC are ubiquitously expressed in all tissues, and an increase in intracellular cAMP levels will lead to the activation of both PKA and EPAC. […]
This qHTS will be used to screen the Molecular Libraries Small Molecule Repository (MLSMR) as a concentration-titration series using the NCGC unique quantitative screening (qHTS) platform to find activators for EPAC1. […] Activators are identified by monitoring the change in fluorescence signal as the exchanged free BODIPY-GDP has a reduced fluorescence compared to Rap1-bound BODIPY-GDP. […]
Briefly, three uL of reagents (100 nM EPAC2, 250 nM RAP1B-BODIPY-GDP, 50 uM GDP) were dispensed into a 1536-well Greiner black solid-bottom medium binding assay plate. […] The assay plates were read at 5 minute intervals for 30 minutes in the ViewLux plate reader using 480nm excitation and 540nm emission filters. […]
% is scaled to controls: 0 for no effect and ±100 for the full control effect.

Chains of the proteins cited; added tags and fusions are not shown.
UniProt Q8WZA2, whole entry: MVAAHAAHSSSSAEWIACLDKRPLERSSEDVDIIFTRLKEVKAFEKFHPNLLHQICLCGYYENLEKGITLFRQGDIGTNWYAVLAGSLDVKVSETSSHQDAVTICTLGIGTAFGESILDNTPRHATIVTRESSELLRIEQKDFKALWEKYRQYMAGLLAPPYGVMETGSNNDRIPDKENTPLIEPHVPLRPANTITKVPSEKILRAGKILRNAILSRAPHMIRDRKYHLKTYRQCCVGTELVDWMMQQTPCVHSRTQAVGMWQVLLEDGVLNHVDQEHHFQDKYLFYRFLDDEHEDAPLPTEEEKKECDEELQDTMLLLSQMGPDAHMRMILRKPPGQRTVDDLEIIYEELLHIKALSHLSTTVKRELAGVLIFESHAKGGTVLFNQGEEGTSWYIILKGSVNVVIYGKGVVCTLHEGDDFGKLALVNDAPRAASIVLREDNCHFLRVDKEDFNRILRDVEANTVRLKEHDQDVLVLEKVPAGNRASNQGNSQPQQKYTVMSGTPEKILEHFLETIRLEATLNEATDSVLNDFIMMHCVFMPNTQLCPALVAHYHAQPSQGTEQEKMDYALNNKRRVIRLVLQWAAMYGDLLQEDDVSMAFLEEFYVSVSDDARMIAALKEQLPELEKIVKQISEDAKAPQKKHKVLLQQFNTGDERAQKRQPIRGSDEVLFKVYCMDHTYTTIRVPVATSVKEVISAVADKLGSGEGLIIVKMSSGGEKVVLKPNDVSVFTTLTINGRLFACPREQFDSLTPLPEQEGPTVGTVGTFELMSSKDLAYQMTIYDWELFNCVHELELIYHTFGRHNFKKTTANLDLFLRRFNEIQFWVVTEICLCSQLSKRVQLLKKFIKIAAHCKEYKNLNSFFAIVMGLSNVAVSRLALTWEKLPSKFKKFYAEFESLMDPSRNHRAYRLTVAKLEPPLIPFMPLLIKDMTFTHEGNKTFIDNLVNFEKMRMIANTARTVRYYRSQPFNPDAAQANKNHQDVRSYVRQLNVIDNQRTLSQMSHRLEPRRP

Structure (SMILES) | activation
CN1CCCC(OC(=O)C(O)(c2ccccc2)c2ccccc2)C1 (stereo unspecified) | inactive: -37.5%
